SMILES strings stand for the structures.

This experiment has as its target Acetylcholinesterase (Homo sapiens, UniProt P22303). In words: Reactivation of methylphosphonothioate VX-inhibited recombinant human AChE measured up to 10 mins by Ellman's method.
On to `CN(CCCNc1c2c(nc3ccccc13)CCCC2)Cc1ccnc(/C(N)=N/O)c1O`, for which the equilibrium dissociation constant (Kd) worked out at 30 µM.

With `NC(=O)c1cc[n+](CCC[n+]2ccccc2/C=N/O)cc1`, the Kd was found to be 50 µM.

Consider `CN(CCNc1c2c(nc3ccccc13)CCCC2)Cc1ccnc(/C(N)=N/O)c1O`, for which the dissociation constant (Kd) was 15 µM.
